For the experiment, the target named is Mu-type opioid receptor (Homo sapiens) (UniProt P35372). Kind of experiment: mu opioid receptor activation potency – cell-based, luminescence, dose response, powder samples, counter-screen for mouse HTR2A agonist project, late-stage follow-up (AID 720642). As to conditions: U2OS OPRM1 beta-arrestin complementation. Background: The purpose of a counterscreen is to sort out artefacts and off-target activity.

Protein sequences, listed by entry. Tags and fused reporters are not part of them.
UniProt P35372, whole entry, looked up: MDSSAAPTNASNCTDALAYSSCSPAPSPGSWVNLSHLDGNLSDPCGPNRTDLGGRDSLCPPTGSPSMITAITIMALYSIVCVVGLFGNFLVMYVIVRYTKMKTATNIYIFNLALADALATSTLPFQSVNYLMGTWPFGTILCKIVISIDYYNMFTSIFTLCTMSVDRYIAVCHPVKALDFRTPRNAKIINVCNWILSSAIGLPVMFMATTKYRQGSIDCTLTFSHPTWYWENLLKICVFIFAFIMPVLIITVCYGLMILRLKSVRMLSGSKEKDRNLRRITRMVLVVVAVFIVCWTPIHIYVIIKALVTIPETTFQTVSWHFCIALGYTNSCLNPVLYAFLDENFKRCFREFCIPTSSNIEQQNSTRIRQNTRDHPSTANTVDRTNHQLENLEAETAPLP

The values below come from PubChem BioAssay AID720642 (The Scripps Research Institute Molecular Screening Center, 2013).

Calls of active or inactive are those of the source.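 How the source made its calls: active means EC50 activation potency at or below 10 µM in this mu opioid counterscreen; inactive means EC50 above 10 µM or never reaching half activation.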 Where only a bound is given, the exact number is not on record here.

By EC50 is commonly meant the concentration giving half of the maximal effect. Take `Nc1c2c(nc3ccccc13)CCCC2`: the EC50 is inactive: > 92.5 µM.
